Values of other authors in PubChem BioAssay AID977611.

Tests used:
Assay in all cases: PubChem AID 977611
[1] = molecular target: human Nicotinamide phosphoribosyltransferase; settings: PDB protein-ligand complexes, literature Kd; protein: human Nicotinamide phosphoribosyltransferase; PDB entry 3DKJ
[2] = molecular target: QAPRTase; settings: PDB protein-ligand complexes, literature Kd; protein: QAPRTase; PDB entry 3C2F
[3] = molecular target: Wild type human transthyretin (TTR); settings: PDB protein-ligand complexes, literature Kd; protein: Wild type human transthyretin (TTR); PDB entry 3NEE
[4] = molecular target: V30M mutant human transthyretin (TTR); settings: PDB protein-ligand complexes, literature Kd; protein: V30M mutant human transthyretin (TTR); PDB entry 3NES
[5] = molecular target: Phosphoribosyl-aminoimidazole carboxylase; settings: PDB protein-ligand complexes, literature Kd; protein: Phosphoribosyl-aminoimidazole carboxylase; PDB entry 3K5I
[6] = molecular target: Retinaldehyde-binding protein 1, CRALBP mutant R234W; settings: PDB protein-ligand complexes, literature Kd; protein: Retinaldehyde-binding protein 1, CRALBP mutant R234W; PDB entry 3HX3
[7] = molecular target: catalytic domain of human MMP12; settings: PDB protein-ligand complexes, literature Kd; protein: catalytic domain of human MMP12; PDB entry 3LK8
[8] = molecular target: D-galactose-binding periplasmic protein; settings: PDB protein-ligand complexes, literature Kd; protein: D-galactose-binding periplasmic protein; PDB entry 3GA5
[9] = molecular target: mouse T-cell surface glycoprotein CD1d1; settings: PDB protein-ligand complexes, literature Kd; protein: mouse T-cell surface glycoprotein CD1d1; PDB entry 3ILQ
[10] = molecular target: Apoferritin; settings: PDB protein-ligand complexes, literature Kd; protein: Apoferritin; PDB entry 3F33
[11] = molecular target: Tyrosine-protein kinase ABL1-chain A,B; settings: PDB protein-ligand complexes, literature Kd; protein: Tyrosine-protein kinase ABL1-chain A,B; PDB entry 3MS9
[12] = molecular target: Bovine Protein S100-B with Ca2+; settings: PDB protein-ligand complexes, literature Kd; protein: Bovine Protein S100-B with Ca2+; PDB entry 3LK1
[13] = molecular target: Macrophage migration inhibitory factor(MIF); settings: PDB protein-ligand complexes, literature Kd; protein: Macrophage migration inhibitory factor(MIF); PDB entry 3IJG
[14] = molecular target: LT1009 (SONEPCIZUMAB) antibody Fab fragment; settings: PDB protein-ligand complexes, literature Kd; protein: LT1009 (SONEPCIZUMAB) antibody Fab fragment; PDB entry 3I9G
[15] = molecular target: Poly(ADP-ribose) polymerase 3; settings: PDB protein-ligand complexes, literature Kd; protein: Poly(ADP-ribose) polymerase 3; PDB entry 3FHB
[16] = molecular target: F171D mutant of human MMP-12 catalytic domain (Gly106-Gly263); settings: PDB protein-ligand complexes, literature Kd; protein: F171D mutant of human MMP-12 catalytic domain (Gly106-Gly263); PDB entry 3LKA
[17] = molecular target: ORF 17 , KSHV Pr; settings: PDB protein-ligand complexes, literature Kd; protein: ORF 17 , KSHV Pr; PDB entry 3NJQ
[18] = molecular target: Agglutinin alpha chain, MPA; settings: PDB protein-ligand complexes, literature Kd; protein: Agglutinin alpha chain, MPA; PDB entry 3LM1
[19] = molecular target: 2-C-methyl-D-erythritol 2,4-cyclodiphosphate synthase; settings: PDB protein-ligand complexes, literature Kd; protein: 2-C-methyl-D-erythritol 2,4-cyclodiphosphate synthase; PDB entry 3ELC
[20] = molecular target: 6-phosphofructokinase isozyme 2,Pfk-2; settings: PDB protein-ligand complexes, literature Kd; protein: 6-phosphofructokinase isozyme 2,Pfk-2; PDB entry 3N1C
[21] = molecular target: C-terminal effector-binding domain of CggR; settings: PDB protein-ligand complexes, literature Kd; protein: C-terminal effector-binding domain of CggR; PDB entry 3BXH
[22] = molecular target: BC domain of Acetyl-CoA carboxylase 2; settings: PDB protein-ligand complexes, literature Kd; protein: BC domain of Acetyl-CoA carboxylase 2; PDB entry 3JRX
[23] = molecular target: Maltose-binding periplasmic protein; settings: PDB protein-ligand complexes, literature Kd; protein: Maltose-binding periplasmic protein; PDB entry 3JYR
[24] = molecular target: Acarbose/maltose binding protein GacH; settings: PDB protein-ligand complexes, literature Kd; protein: Acarbose/maltose binding protein GacH; PDB entry 3JZJ
[25] = molecular target: Bos Taurus Arp2/3; settings: PDB protein-ligand complexes, literature Kd; protein: Bos Taurus Arp2/3; PDB entry 3DXK
[26] = molecular target: Human p38 MAP Kinase; settings: PDB protein-ligand complexes, literature Kd; protein: Human p38 MAP Kinase; PDB entry 3L8S
[27] = molecular target: Plant pathogenesis-related proteins of class 10(PR-10); settings: PDB protein-ligand complexes, literature Kd; protein: Plant pathogenesis-related proteins of class 10(PR-10); PDB entry 3E85
[28] = molecular target: Transthyretin; settings: PDB protein-ligand complexes, literature Kd; protein: Transthyretin; PDB entry 3P3R
[29] = molecular target: Hepatitis C virus polymerase NS5B (CON1 1-570); settings: PDB protein-ligand complexes, literature Kd; protein: Hepatitis C virus polymerase NS5B (CON1 1-570); PDB entry 3FQL
[30] = molecular target: human Pi class Glutathione S-transferase GSTP1-1; settings: PDB protein-ligand complexes, literature Kd; protein: human Pi class Glutathione S-transferase GSTP1-1; PDB entry 3GUS
[31] = molecular target: human Pi class Glutathione S-transferase GSTP1-1(I104A); settings: PDB protein-ligand complexes, literature Kd; protein: human Pi class Glutathione S-transferase GSTP1-1(I104A); PDB entry 3IE3
[32] = molecular target: Actin-5C; settings: PDB protein-ligand complexes, literature Kd; protein: Actin-5C; PDB entry 3EKS
[33] = molecular target: H-2 class I histocompatibility antigen, K-B alpha chain, H2Kb; settings: PDB protein-ligand complexes, literature Kd; protein: H-2 class I histocompatibility antigen, K-B alpha chain, H2Kb; PDB entry 3P9L
[34] = molecular target: Glutamine-dependent NAD(+) synthetase; settings: PDB protein-ligand complexes, literature Kd; protein: Glutamine-dependent NAD(+) synthetase; PDB entry 3DLA
[35] = molecular target: MTA/SAH nucleosidase(Helicobacter pylori MTAN); settings: PDB protein-ligand complexes, literature Kd; protein: MTA/SAH nucleosidase(Helicobacter pylori MTAN); PDB entry 3NM6
[36] = molecular target: Heat shock protein HSP 90-alpha; settings: PDB protein-ligand complexes, literature Kd; protein: Heat shock protein HSP 90-alpha; PDB entry 3K98
[37] = molecular target: Coronatine-insensitive protein 1 with SKP1-like protein 1A (COI1-ASK1); settings: PDB protein-ligand complexes, literature Kd; protein: Coronatine-insensitive protein 1 with SKP1-like protein 1A (COI1-ASK1); PDB entry 3OGM
[38] = molecular target: 3LQ4 A + 3LQ4 B; settings: PDB protein-ligand complexes, literature Kd; PDB entry 3LQ4
[39] = molecular target: 3LQ2 A + 3LQ2 B; settings: PDB protein-ligand complexes, literature Kd; PDB entry 3LQ2

With O=P(O)(O)OC[C@H]1O[C@H](OP(=O)(O)OP(=O)(O)O)[C@H](O)[C@@H]1O as the molecule, how does the Kd [1] read?
The Kd was 2000 nM.

And the Kd [2]?
The Kd was 10.1 mM.

Which results are given for Cc1cc(OCC(=O)O)cc(C)c1Cc1ccc(O)c(C(C)C)c1?
Kd [3]: 4.6 µM; Kd [4]: 2400 nM

With Nc1cncn1[C@@H]1O[C@H](COP(=O)(O)O)[C@@H](O)[C@H]1O as the molecule, how does the Kd [5] read?
The Kd was 20 µM.

With CC1=C(/C=C/C(C)=C/C=C\C(C)=C\C=O)C(C)(C)CCC1 as the molecule, how does the Kd [6] read?
The Kd was 10 nM.

With COc1ccc(S(=O)(=O)NCC(=O)NO)cc1 as the molecule, how does the Kd [7] read?
Its Kd is 19.7 nM.

For OC[C@@H](O)CO[C@@H]1O[C@H](CO)[C@H](O)[C@H](O)[C@H]1O, which Kd [8] is on record?
The Kd was 3.2 µM.

For CCCCCCCC/C=C\CCCCCCCC(=O)OC[C@H](CO[C@H]1O[C@H](CO)[C@H](O)[C@H](O)[C@H]1O)OC(=O)CCCCCCCCCCCCCCC, which Kd [9] is on record?
Its Kd is 6.2 µM.

Which Kd [10] does the source give for CC(C)c1cccc(C(C)C)c1O here?
Its Kd is 460 µM.

For COC(=O)c1ccc(Cl)cc1N, which Kd [11] is on record?
The Kd was 6 µM.

With O=C(O)c1ccccc1S as the molecule, how does the Kd [12] read?
The Kd was 55.2 µM.

For CC(C)c1nn2ccccc2c1C(=O)[C@@H](C)N, which Kd [13] is on record?
Its Kd is 54 µM.

For CCCCCCCCCCCCC/C=C/[C@@H](O)[C@@H](N)COP(=O)(O)O, which Kd [14] is on record?
The Kd was 1.1 nM.

Which Kd [15] does the source give for Nc1cccc(C(=O)O)c1 here?
The Kd was 2000 nM.

Which Kd [16] does the source give for COc1ccc(S(N)(=O)=O)cc1 here?
The Kd was 1.5 mM.

Which Kd [17] does the source give for O=C(O)c1ccc(NC(=O)c2cccc(CC3CCCCC3)n2)c(Cc2ccccc2)c1 here?
Its Kd is 13 µM.

For CC(=O)N[C@H]1[C@@H](Oc2ccc([N+](=O)[O-])cc2)O[C@H](CO)[C@H](O)[C@@H]1O, which Kd [18] is on record?
Its Kd is 20 µM.

With Nc1nc(=O)n([C@@H]2O[C@H](CO)[C@@H](O)[C@H]2O)cc1F as the molecule, how does the Kd [19] read?
The Kd was 2.02 mM.

What does the source list for O=P(O)(O)OC[C@H]1O[C@](O)(CO)[C@@H](O)[C@@H]1O?
Kd [20]: 6 µM; Kd [21]: 94.3 µM

With CO[C@H]1CCCC[C@@H](c2ccccc2)OC(=O)[C@@H](C)[C@@]2(O)O[C@H]([C@@H](C)[C@H](O)[C@H]2OC)[C@@H](C)/C=C/[C@H]1OC as the molecule, how does the Kd [22] read?
Its Kd is 1 nM.

With C[C@H]1O[C@H](O[C@H]2[C@H](O)[C@@H](O)[C@@H](O[C@H]3[C@H](O)[C@@H](O)[C@@H](O)O[C@@H]3CO)O[C@@H]2CO)[C@H](O)[C@@H](O)[C@@H]1N[C@H]1C=C(CO)[C@@H](O)[C@H](O)[C@H]1O as the molecule, how does the Kd [23] read?
Its Kd is 2900 nM.

What about the Kd [24] of the same molecule?
Its Kd is 248 µM.

Which Kd [25] does the source give for Cc1[nH]c2ccccc2c1CCNC(=O)c1cccs1 here?
Its Kd is 470 nM.

For NC(=O)c1c(OCc2c(F)cc(Br)cc2F)nsc1NC(=O)NCCCCN1CCCC1, which Kd [26] is on record?
Its Kd is 99 nM.

With O=C(Nc1ccccc1)Nc1ccccc1 as the molecule, how does the Kd [27] read?
The Kd was 4.2 µM.

Which Kd [28] does the source give for O=C(c1cc(O)c(O)c([N+](=O)[O-])c1)c1ccccc1F here?
The Kd was 56.1 nM.

With CNC(=O)c1c(-c2ccc(F)cc2)oc2cc(N(CCO)S(C)(=O)=O)c(C3CC3)cc12 as the molecule, how does the Kd [29] read?
Its Kd is 71 nM.

Which results are given for O=[N+]([O-])c1ccc(SCCCCCCO)c2nonc12?
Kd [30]: 900 nM; Kd [31]: 210 nM

For C=C1[C@@H](C)[C@H]2[C@H](Cc3ccccc3)NC(=O)[C@]23[C@H](OC(C)=O)/C=C/[C@@](C)(O)C(=O)[C@@H](C)C/C=C/[C@H]3[C@@H]1O, which Kd [32] is on record?
Its Kd is 2000 nM.

With CC[C@H](C)[C@H](NC(=O)[C@@H](NC(=O)[C@@H](N)CO)[C@@H](C)CC)C(=O)N[C@@H](CC(N)=O)C(=O)N[C@@H](Cc1ccccc1)C(=O)N[C@@H](CCC(=O)O)C(=O)N[C@@H](CCCCN)C(=O)N[C@@H](CC(C)C)C(=O)O as the molecule, how does the Kd [33] read?
The Kd was 5 µM.

For Nc1ncnc2c1ncn2[C@@H]1O[C@H](COP(=O)(O)OP(=O)(O)OC[C@H]2O[C@@H]([n+]3cccc(C(=O)[O-])c3)[C@H](O)[C@@H]2O)[C@@H](O)[C@H]1O, which Kd [34] is on record?
Its Kd is 350 µM.

For NC(CO)(CO)CO, which Kd [35] is on record?
Its Kd is 45 mM.

For CCNC(=O)[C@H]1c2ccccc2CN1C(=O)c1cc(Cl)c(O)cc1O, which Kd [36] is on record?
Its Kd is less than 1 nM.

Which Kd [37] does the source give for CC[C@@H]1C[C@@H]2C(=O)CC[C@@H]2[C@@H](C(=O)N[C@@]2(C(=O)O)C[C@@H]2CC)C1 here?
Its Kd is 48 nM.

What does the source list for Cc1ncc(C[n+]2csc(CCOP(=O)([O-])OP(=O)(O)O)c2C)c(N)n1?
Kd [38]: 5.97 µM; Kd [39]: 5.97 µM
